Data from patent publication US7094575B2 (priority 1999, dated 2006).

Test: Mouse paw oedema after inhibitor alone
Conditions: Table 9; 100 μg alone; mean ± SD (n = 4)

## CC(C)C[C@H](NC(=O)[C@@H]1CCCN1C(=O)[C@H](CC(C)C)NC(=O)CNC(=O)[C@@H]1CCCN1C(=O)[C@H](CC(C)C)NC(=O)[C@@H]1CCCN1)C(=O)N[C@@H](CO)C(=O)N[C@@H](CCCCN)C(=O)N1CCC[C@H]1C(=O)O [P-0009]
  Oedema (mg), inhibitor alone: 17 ± 6 mg
